Measured values reported in publication PMC8480901 (PLoS ONE, 2021).

Tested on: J774.2 mouse macrophages
Experiment: LPS-induced cytokine and chemokine levels in J774.2 mouse macrophage cell supernatant (ELISA)
Assay type: cell-based
Conditions: J774.2 supernatant; for IL-1β / IL-6: individual replicate

C[C@@H]1C[C@H]2[C@@H]3CCC4=CC(=O)C=C[C@]4(C)[C@@]3(F)[C@@H](O)C[C@]2(C)[C@@]1(O)C(=O)CO [Dexamethasone]
IL-1β Mean (0.0003 µM): 251 pg/mL
IL-6 Mean (0.0003 µM): 86333 pg/mL
IL-1β (0.0003 µM): 243.798 pg/mL and 258.859 pg/mL
IL-6 (0.0003 µM): 89162 pg/mL and 83503 pg/mL
IL-1β Mean (0.001 µM): 209 pg/mL
IL-6 Mean (0.001 µM): 75753 pg/mL
IL-1β (0.001 µM): 191.535 pg/mL and 225.78 pg/mL
IL-6 (0.001 µM): 77021 pg/mL and 74486 pg/mL
IL-1β Mean (0.003 µM): 152 pg/mL
IL-6 Mean (0.003 µM): 85496 pg/mL
IL-1β (0.003 µM): 159.132 pg/mL and 145.203 pg/mL
IL-6 (0.003 µM): 89240 pg/mL and 81752 pg/mL
IL-1β Mean (0.01 µM): 108 pg/mL
IL-6 Mean (0.01 µM): 64804 pg/mL
IL-1β (0.01 µM): 100.919 pg/mL and 115.93 pg/mL
IL-6 (0.01 µM): 67940 pg/mL and 61667 pg/mL
IL-1β Mean (0.03 µM): 71 pg/mL
IL-6 Mean (0.03 µM): 46592 pg/mL
IL-1β (0.03 µM): 66.006 pg/mL and 75.789 pg/mL
IL-6 (0.03 µM): 45234 pg/mL and 47949 pg/mL
IL-1β Mean (0.1 µM): 60 pg/mL
IL-6 Mean (0.1 µM): 35534 pg/mL
IL-1β (0.1 µM): 64.116 pg/mL and 55.423 pg/mL
IL-6 (0.1 µM): 34479 pg/mL and 36589 pg/mL
IL-1β Mean (0.3 µM): 49 pg/mL
IL-6 Mean (0.3 µM): 33007 pg/mL
IL-1β (0.3 µM): 48.888 pg/mL and 49.311 pg/mL
IL-6 (0.3 µM): 33007 pg/mL
IL-1β Mean (1 µM): 48 pg/mL
IL-6 Mean (1 µM): 32296 pg/mL
IL-1β (1 µM): 45.029 pg/mL and 51.124 pg/mL
IL-6 (1 µM): 33259 pg/mL and 31333 pg/mL

Values joined by “and” are separate entries in the source; they are usually repeats but may differ in a detail not shown here. Equal entries are not always repeated.
